According to patent US20060002891A1, “Cytomodulating conjugates of members of specific binding pairs” (SangStat Medical Corporation, priority 1991, published 2006):

What was measured:
[1] = system: C57BL6 stimulator to BALB/c responder mixed lymphocyte reactions; conditions: for effect on MLR at high concentrations: 10 μg/ml, 3H-thymidine incorporation day 5; for proliferation in MLR at lower doses: compared with cultures with no additive
[2] = system: C57BL/6 heterotopic cardiac allografts in BALB/c recipients; experiment: Heterotopic cardiac allograft survival; type: in vivo, mouse; conditions: for graft survival, immunized mice: BALB/c immunized with KLH-FITC, daily 50 μg/Kg for 30 days
Procedure: Mice, immunizations, injections, and cardiac allograft: Groups of 4 BALB/c or C57BL/6 male mice 9-10 weeks of age (Simonsen Laboratories, Gilroy, Calif.) were used throughout the experiments. BALB/c mice were primed and boosted with injections of 20 μg KLH-FITC prepared in CFA or IFA (Complete and Incomplete Freund's Adjuvants respectively; Sigma Chemical Co.) delivered sub-cutaneously in the right hind footpad. At each time point indicated, the mice were anesthetized with 65% CO2 and bled via the retroorbital plexus. Serum was separated from the sample and either tested in ELISA or passed over a FITC bound column prepared according to the manufacturers instructions (Pharmalink kit, Pierce). Anti-FITC antibodies were eluted from the column with pH 4.0 Tris-Hcl and extensively dialyzed against PBS pH 7.4.
C57BL/6 mice were heavily anesthetized with Metofane (methoxyflurane, Pittmann-Moore, Mundelein, Ill.), their hearts removed and the organ flushed with heparinised Ringers lactate. Heterotopic cardiac transplant to BALB/c recipients was performed according to the method of Ono and Lindsey (1969) J. Thorac. Cardiovasc. Surg. 7:225-229. Treatment with 50 μg/Kg/day (1 μg/mouse) IL2-FITC conjugate or IL2 alone was delivered via the tail veins in 200 μl PBS. Graft survival was evaluated daily by direct palpation. Suspected rejection was confirmed by opening the peritoneal cavity of the recipient and direct observation of the graft. All animals were treated and maintained in accordance with public health service guidelines.

IL2-FITC: human IL2 coupled to fluorescein 5-isothiocyanate, mean F:P ratio of 1
toxicity to proliferating T-cells [1]: not toxic
effect on MLR at high concentrations [1]: accelerate the MLR
proliferation in MLR at lower doses [1]: proliferate equally as well or better
increase in graft survival versus non-immunized/untreated controls ([2]; 38.7±7.1 days versus day 9±0.7): > 4 fold
graft survival, immunized mice [2]: 38.7 ± 7.1 days
day of graft rejection, nonimmunized mice ([2]; nonimmunized BALB/c, treated): 9.4 ± 1.1 days

IL2: human IL2 (PeproTech), unlabeled cytokine control [reference compound]
effect on MLR at high concentrations [1]: accelerate the MLR
proliferation in MLR at lower doses [1]: proliferate equally as well or better
graft survival, immunized mice [2]: 10 ± 1.4 days
